Experiment: Preliminary pharmacokinetic study of compound 12 in rats
Conditions: metabolite after single oral 100 mg/kg of compound 12, PO-1 formulation

pterostilbene-4′-O-sulfate
time of maximum concentration after oral administration: 2.0 h
